Test results from ChEMBL document CHEMBL1149252, “Synthesis and structure-activity relationships of 4-alkynyloxy phenyl sulfanyl, sulfinyl, and sulfonyl alkyl hydroxamates as tumor necrosis factor-alpha converting enzyme and matrix metalloproteinase inhibitors” (J Med Chem, 2004).

The chains behind the UniProt entries cited, without tags or fusion partners. Where a name states a change or a piece, a line headed by the entry shows the natural chain unless it says otherwise.
UniProt P78536: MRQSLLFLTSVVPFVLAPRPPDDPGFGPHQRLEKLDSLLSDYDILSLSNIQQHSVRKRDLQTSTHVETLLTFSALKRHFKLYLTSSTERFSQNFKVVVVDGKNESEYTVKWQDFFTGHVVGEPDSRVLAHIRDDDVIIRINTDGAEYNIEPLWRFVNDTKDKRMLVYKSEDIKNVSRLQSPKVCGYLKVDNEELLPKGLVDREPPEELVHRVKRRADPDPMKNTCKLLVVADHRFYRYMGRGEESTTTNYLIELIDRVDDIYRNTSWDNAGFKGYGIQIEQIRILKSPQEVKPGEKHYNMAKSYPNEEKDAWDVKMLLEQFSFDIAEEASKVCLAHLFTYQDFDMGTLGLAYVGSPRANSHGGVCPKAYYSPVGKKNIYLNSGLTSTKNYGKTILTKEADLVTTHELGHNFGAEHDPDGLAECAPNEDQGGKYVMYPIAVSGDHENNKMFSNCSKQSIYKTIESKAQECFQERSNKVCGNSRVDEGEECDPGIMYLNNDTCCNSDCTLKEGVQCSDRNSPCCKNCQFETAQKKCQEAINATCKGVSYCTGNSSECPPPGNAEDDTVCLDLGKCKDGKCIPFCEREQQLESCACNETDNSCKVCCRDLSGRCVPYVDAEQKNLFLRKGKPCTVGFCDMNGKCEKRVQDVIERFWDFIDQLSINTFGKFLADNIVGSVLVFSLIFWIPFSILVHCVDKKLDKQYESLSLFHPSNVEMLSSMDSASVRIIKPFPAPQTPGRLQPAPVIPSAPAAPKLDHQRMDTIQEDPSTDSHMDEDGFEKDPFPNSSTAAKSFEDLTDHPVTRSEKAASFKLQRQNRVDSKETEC

Target: Disintegrin and metalloproteinase domain-containing protein 17 (Homo sapiens, UniProt P78536)

Compound CC#CCOc1ccc([S@@+]([O-])[C@H](C(=O)NO)C(C)C)cc1 has an IC50 of 48 nM.
